PubChem BioAssay AID2435 (The Scripps Research Institute Molecular Screening Center, 2010)
This is a selection; strong and weak results do not stand in their true shares. Activity calls are given as the source filed them.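 The calls were made as follows: active = activation above the mean of all tested compounds plus 3 SD, cutoff set per screening run (cut at about 20% in these data); inactive = the rest.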

Protein sequences, listed by entry. Tags and fused reporters are not part of them.
UniProt P30559, whole entry: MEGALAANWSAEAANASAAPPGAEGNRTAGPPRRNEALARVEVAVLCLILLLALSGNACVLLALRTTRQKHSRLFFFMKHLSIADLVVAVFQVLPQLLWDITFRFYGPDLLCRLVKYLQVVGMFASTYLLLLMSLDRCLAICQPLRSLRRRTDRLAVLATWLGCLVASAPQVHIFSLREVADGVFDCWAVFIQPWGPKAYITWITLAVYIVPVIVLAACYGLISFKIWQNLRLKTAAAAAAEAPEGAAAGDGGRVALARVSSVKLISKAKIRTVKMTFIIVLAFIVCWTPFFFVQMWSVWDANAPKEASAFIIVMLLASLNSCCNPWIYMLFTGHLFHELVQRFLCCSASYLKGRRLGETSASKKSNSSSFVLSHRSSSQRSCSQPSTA

What follows are molecules tested against Oxytocin receptor (Homo sapiens) (UniProt P30559) (assay: human OXTR agonists, primary screen, fluorescence, CHO-OTR cells, Fluo-8 calcium (AID 2435;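 also: peak over basal fluorescence ratio from a 100 s FLIPR kinetic read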)). Details: Fluo-8 calcium fluorescence, at 3 µM, active compounds read high, normalized: DMSO 0%, oxytocin 100%.

SMILES	activation
CCC(=O)N(c1ccccc1)C1(COC)CCN(CCc2cccs2)CC1	inactive: -0.24%
CCC(=O)N(c1ccccc1)C1(COC)CCN(CCn2nnn(CC)c2=O)CC1	inactive: 0.9%
